Target: D2L receptor (Rattus norvegicus, UniProt P61169)
Test: biochemical

Amino acid sequences for entries named in this document (tags omitted). A change or cut given only in a name is not applied to a line headed by its entry.
UniProt P61169, whole entry: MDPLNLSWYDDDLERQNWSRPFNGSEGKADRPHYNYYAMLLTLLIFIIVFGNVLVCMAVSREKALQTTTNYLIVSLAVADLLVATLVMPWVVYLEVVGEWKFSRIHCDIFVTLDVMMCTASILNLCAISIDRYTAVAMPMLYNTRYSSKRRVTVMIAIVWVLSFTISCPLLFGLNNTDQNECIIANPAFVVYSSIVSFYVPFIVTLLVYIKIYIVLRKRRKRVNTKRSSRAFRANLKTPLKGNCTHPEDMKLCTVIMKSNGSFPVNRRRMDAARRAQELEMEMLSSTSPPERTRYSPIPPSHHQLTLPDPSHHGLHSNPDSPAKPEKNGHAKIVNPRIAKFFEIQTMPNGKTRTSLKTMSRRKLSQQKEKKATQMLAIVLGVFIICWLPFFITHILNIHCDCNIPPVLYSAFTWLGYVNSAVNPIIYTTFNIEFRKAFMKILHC

SMILES: Cl.Oc1cc2c(cc1O)[C@@H]1c3ccccc3CN[C@H]1CC2 (relative stereo) [Compound 6a, Trans-10,11-dihydroxy-5,6,6a,7,8,12b-hexahydrobenzo[a]phenanthridine hydrochloride]
- Ki: 183 nM
